This passage reports Log K results from ChEMBL document CHEMBL1122589 (J Med Chem, 1984).

The test has as its system Nucleic Acid. In words: Binding constant for DNA by ethidium bromide displacement. It counts as nucleic-acid assay.

Take `CS(=O)(=O)Nc1ccc(Nc2c3ccccc3nc3ccccc23)cc1`: the Log K is 6.2.
